From patent US20180371033A1, “THERAPEUTIC PEPTIDES AND METHODS OF USE THEREOF” (priority 2015, published 2018)

Legend:
[1] = system: Colo205, MDA-MB231 or U87 tumors; experiment: Peptide homing to tumors: summary over Colo205, MDA-MB231 and U87 xenografts; type: in vivo; details: each tumor (Colo205, MDA-MB231, U87); Cy5.5 conjugates
Protocol: (§1) This example describes peptide homing to tumors. A peptide of the disclosure was labeled with a Cyanine 5.5 (Cy5.5) NHS ester near infrared fluorophore under aqueous conditions. Peptides of the disclosure were dissolved to 2 mg/mL in 50 mM sodium bicarbonate, pH 8.3. Cy5.5 NHS ester was dissolved at 10 mg/mL in anhydrous dimethylsulfoxide.
(§2) Each peptide was chemically conjugated to Cy5.5 at the N-terminus or to a reactive lysine via an active NHS ester on the dye. […] The resulting fluorescence was normalized based on the fluorescence of the solution. The tumors were subcutaneous xenografts of either Colo205 (a human colon cancer cell line), MDA-MB231 (a triple-negative human breast cancer cell line), or U87 (a human glioma cell line), which were implanted in the flank of the mouse.
At the end of the 24-hour dosing period, mice were euthanized by CO2 asphyxiation. Blood, tumor, muscle, kidney, liver, spleen, and colon tissue were harvested and placed in PBS on ice. The tissue was then scanned on the Odyssey CLx scanner (LI-COR) using the 700 nm channel, 21 micron resolution, and the Auto intensity settings. The signal intensity within a region of interest (ROI) was measured using the Image Studio software version 5.2 (LI-COR). All ROI's were the same size. […]

[2] = system: Colo205 tumor; experiment: Peptide homing to tumors: whole organ near-infrared fluorescence of Cy5.5 labeled peptides, Colo205 tumor-bearing mice; type: in vivo; details: 10 nmol Cy5.5 conjugate, 24 hours, single mouse; for Colon (near-infrared fluorescence signal) / Liver (near-infrared fluorescence signal) / Muscle (near-infrared fluorescence signal) / Spleen (near-infrared fluorescence signal) / Tumor (near-infrared fluorescence signal): average of 3 ROIs
Protocol: as §1
(§3) Approximately 0.1 molar equivalents of dye were added to the aqueous peptide solution at 10 minute intervals with thorough mixing. Analytical HPLC monitored at 214 and 678 nm was used to assess the completion of the reaction. Once complete, the mono-labeled product was purified using semi-preparative HPLC. The presence of a single Cy5.5-conjugated product was confirmed by mass spectrometry.
as §2
(§4) At the end of the 24-hour dosing period, mice were euthanized by CO2 asphyxiation. Blood, tumor, muscle, kidney, liver, spleen, and colon tissue were harvested and placed in PBS on ice. The tissue was then scanned on the Odyssey CLx scanner (LI-COR) using the 700 nm channel, 21 micron resolution, and the Auto intensity settings. The signal intensity within a region of interest (ROI) was measured using the Image Studio software version 5.2 (LI-COR). All ROI's were the same size.
(§5) TABLE 5 lists whole organ near-infrared fluorescence quantification data in triplicate of Cy5.5 labeled peptides of SEQ ID NO: 25, SEQ ID NO: 32, SEQ ID NO: 17, SEQ ID NO: 6, SEQ ID NO: 37, SEQ ID NO: 35, or SEQ ID NO: 36 from Colo205 tumor-bearing Female Harlan athymic mice. Each row in TABLE 5 represents data from a single mouse (signal for each tissue is averaged over 3 ROIs per tissue).

[3] = system: MDA-MB-231 tumor; experiment: Peptide homing to tumors: whole organ fluorescence of Cy5.5 labeled peptides, MDA-MB-231 tumor-bearing mice; type: in vivo; details: 10 nmol Cy5.5 conjugate, 24 hours, single mouse; for Colon (fluorescence signal) / Liver (fluorescence signal) / Muscle (fluorescence signal) / Spleen (fluorescence signal) / Tumor (fluorescence signal): average of 3 ROIs
Protocol: as §1, §3, §2, §4
as §5, with “TABLE 6” for “TABLE 5”, “organ” for “organ near-infrared”, “data” for “data in triplicate”, “from MDA-MB231” for “from Colo205”

[4] = system: U87 tumor; experiment: Peptide homing to tumors: whole organ fluorescence of Cy5.5 labeled peptides, U87 tumor-bearing mice; type: in vivo; details: 10 nmol Cy5.5 conjugate, 24 hours, single mouse; for Colon (fluorescence signal) / Liver (fluorescence signal) / Muscle (fluorescence signal) / Spleen (fluorescence signal) / Tumor (fluorescence signal): average of 3 ROIs
Protocol: as §1, §3, §2, §4
as §5, with “TABLE 7” for “TABLE 5”, “organ” for “organ near-infrared”, “data” for “data in triplicate”, “of” for “of Cy5.5 labeled”, “36 conjugated to Cy5.5,” for “36”, “from U87” for “from Colo205”

[5] = for Blood (densitometric signal in the heart blood) / Brain (percentage of signal in that tissue compared to the signal detected in the heart blood): 14C-radiolabeled peptide, tail vein injection, kidneys ligated, target three hours circulation; for penetration of the blood brain barrier in comparison with the negative controls: reference level for high penetration: at least 10% diffuse signal in brain versus blood
[6] = type: in vivo, mice; details: 14C whole body autoradiography
Source text: This example describes biodistribution of peptides.
ND indicates the peptide was not detected in that tissue.

[7] = Brain section autoradiography: peptide homing to ventricles and cerebral spinal fluid; type: in vivo, Female Harlan athymic nude mice; details: 14C signal in sagittal/coronal brain sections, 3 hours after administration
Source text: The experiment was done in duplicates.

[8] = whole brain homogenates of mice dosed intravenously with 14C-labeled peptide
[9] = radioactivity signal per area in blood compared to tissue

Sequence | detection in tumor [1] | Tumor/Muscle (ratio of the signal in the tumor to the signal in the muscle) [2] | Colon (near-infrared fluorescence signal) [2] | Liver (near-infrared fluorescence signal) [2] | Muscle (near-infrared fluorescence signal) [2] | Spleen (near-infrared fluorescence signal) [2] | Tumor (near-infrared fluorescence signal) [2] | Tumor/Muscle (ratio of the signal in the tumor to the signal in the muscle) [3] | Colon (fluorescence signal) [3] | Liver (fluorescence signal) [3] | Muscle (fluorescence signal) [3] | Spleen (fluorescence signal) [3] | Tumor (fluorescence signal) [3] | Tumor/Muscle (ratio of the signal in the tumor to the signal in the muscle) [4] | Colon (fluorescence signal) [4] | Liver (fluorescence signal) [4] | Muscle (fluorescence signal) [4] | Spleen (fluorescence signal) [4] | Tumor (fluorescence signal) [4] | Blood (densitometric signal in the heart blood) [5] | also measured
GSICIPCFTTDHQIARRCDDCCGGRGRGKCYGPQCICR [SEQ ID NO: 17] | detected in each tumor | 2.796 and 3.02 and 5.044 | 4606666.7 and 5340000 and 4263333.3 | 18766667 and 18466667 and 16800000 | 1340000 and 1636666.7 and 1360000 | 4140000 and 4153333.3 and 3923333.3 | 3746666.7 and 4943333.3 and 6860000 | 3.587 and 7.787 and 9.026 | 2346666.67 and 3130000 and 3636666.67 | 13400000 and 12766666.7 and 15833333.3 | 923666.67 and 706333.33 and 688000 | 2283333.33 and 2500000 and 3006666.67 | 3313333.33 and 5500000 and 6210000 | 10.67 and 7.632 and 7.642 | 5626667 and 3913333 and 4803333 | 24233333 and 16266667 and 16233333 | 1140000 and 1099333 and 1010667 | 4786667 and 2913333 and 3563333 | 12166667 and 8390000 and 7723333 |  | 
GSICIPCFTTDHQIARRCDDCCGGRGRGRCYGPQCICR [SEQ ID NO: 36] | detected in each tumor | 7.633 and 6.925 and 7.346 | 11933333 and 10913333 and 12666667 | 34466667 and 24366667 and 35333333 | 2506666.7 and 2233333.3 and 2600000 | 11300000 and 10500000 and 14733333 | 19133333 and 15466667 and 19100000 | 4.068 and 8.216 | 1560000 and 688333.333 | 5186666.67 and 1933333.33 | 517000 and 125666.67 | 1683333.33 and 643333.333 | 2103333.33 and 1032500 | 8.368 and 8.338 and 7.202 | 16033333 and 28433333 and 12400000 | 45500000 and 32866667 and 39300000 | 3166667 and 3470000 and 2180000 | 11800000 and 6786667 and 7663333 | 26500000 and 28933333 and 15700000 | 13350663.35 | Brain (percentage of signal in that tissue compared to the signal detected in the heart blood) [5]: 9.64%; average brain/blood ratio ([5]; mouse with ligated kidneys, 3 hours after administration of 100 nmol radiolabeled peptide): 9.64%; penetration of the blood brain barrier in comparison with the negative controls [5]: highly penetrate the blood brain barrier; Liver (percentage of signal compared to heart blood) [6]: 128.72%; Lower GI (percentage of signal compared to blood in the heart) [6]: 19.48%; Lung (percentage of signal compared to heart blood) [6]: 104.62%; Muscle (percentage of signal compared to blood in the heart) [6]: 27.65%; Reproductive (tract; percentage of signal compared to heart blood) [6]: 160.48%; Upper GI (percentage of signal compared to blood in the heart) [6]: 353.31%
GSVGCEECPMHCKGKNANPTCDDGVCNCNV [SEQ ID NO: 55] |  |  |  |  |  |  |  |  |  |  |  |  |  |  |  |  |  |  |  | 1838144857.46255 | Brain (percentage of signal in that tissue compared to the signal detected in the heart blood) [5]: 6.86%; penetration of the blood brain barrier in comparison with the negative controls [5]: moderately penetrate the blood brain barrier; localization of the peptide to specific structures in the brain [7]: migrate specifically to a region, tissue, structure or cells in the brain, potentially the hippocampus, the CSF, the ventricles, the meninges, and/or the rostral migratory stream; also recorded: specific structures in the brain, such as ventricles and CSF; intact peptide in the brain [8]: present in the brain; Adipose (percentage of signal compared to blood in the heart) [6]: 6.47%; Liver (percentage of signal compared to heart blood) [6]: 51.65%; Lower GI (percentage of signal compared to blood in the heart) [6]: 9.42%; Lung (percentage of signal compared to heart blood) [6]: 84.67%; Muscle (percentage of signal compared to blood in the heart) [6]: 26.87%; Upper GI (percentage of signal compared to blood in the heart) [6]: 128.14%; Bladder [6, 9]: Low; Spinal Cord [6, 9]: Low; Gall bladder (grade) ([6]; value given in words): ND (ND indicates the peptide was not detected in that tissue); Pancreas (grade) ([6]; value given in words): Low; Reproductive (grade) ([6]; value given in words): Low; Spleen (grade) ([6]; value given in words): Low

Values joined by “and” are separate entries in the source; they are usually repeats but may differ in a detail not shown here. Equal values may be shown once. “Also recorded” adds a separate entry of the source.
